For 51 molecules, activation results are on record in PubChem BioAssay AID624171 (National Center for Advancing Translational Sciences (NCATS), 2012).

This is a selection; strong and weak results do not stand in their true shares. Activity calls are given as the source filed them. Calls come from the whole dose curve; as a rule, active = well fitted activation curve with a large enough effect; inconclusive = small, poorly fitted or top-dose-only effect; inactive = flat fitted curve, though single readings scatter.

A short description of the experiment: qHTS of Nrf2 Activators. Note: % of control where 0% means no effect; nearly all actives have a fitted effect of over 65% in size. To be noted: AREc32 ARE-luciferase reporter (MCF7-derived line), luminescence, 24 h; at 46.1 µM (top of the series) unless noted. From the text: Many diseases have some form of oxidative stress injury and ties to inflammation, causing a host of problems for the patient. The antioxidant response element (ARE) plays an important role in alleviating the harmful effects of oxidative stress. The antioxidant response element (ARE) is a transcriptional regulatory element involved in the activation of genes coding for a number of antioxidant proteins and detoxifying enzymes. These enzymes work in concert to protect tissues from oxidative insults and chemical toxicities in human hepatocytes and immune cells. The protective effects of ARE activation are primarily triggered through Nrf2 (NF-E2-related factor) binding to and activating AREs. It is known that Nrf2 controls the production of over 250 antioxidant and detoxification proteins (Hu et al., 2006), thereby protecting tissues by increasing cellular antioxidant content and suppressing inflammatory signaling pathways. The transcription factor Nrf2 is a central link between oxidative chemicals, such as phenolic antioxidants and electrophilic compounds, and the activation of ARE. Nrf2 levels are constitutively low as a consequence of its interaction with Keap1, which targets its degradation (Zipper and Mulcahy, 2002). Electrophiles react with key cysteine residues in Keap1, releasing Nrf2 and allowing its translocation to the nucleus. Once within the nucleus, Nrf2 complexes with coactivators such as p300, and binds to the AREs to induce gene transcription of cytoprotective enzymes, resulting in the prevention of toxicity. Activation of Nrf2 protects tissues by increasing cellular antioxidant content and suppressing inflammatory signaling pathways. Identifying novel and potent Nrf2 activators by using the AREc32 cell line to detect ARE activation by small molecules will lead to the identification and development of probes to study protective pathways in multiple tissues. These specific probes are essential to study the ARE pathway, and eventually to determine whether this pathway does activate genes that could protect against a host of diseases, including cardiovascular diseases, obesity, diabetes, Alzheimer's, and Parkinson's disease.
This project's aim is to identify novel and potent Nrf2 activators by using the AREc32 cell line to detect ARE activation by small molecules, which will lead to the identification and development of probes to study the ARE pathway.
NIH Chemical Genomics Center [NCGC]
NIH Molecular Libraries Probe Centers Network [MLPCN]
Assay Submitter (PI): Curtis Klaassen, University of Kansas Medical Center
5 uL of 1000 cells/well of AREc32_Fluc cells are seeded into 1536-well plate in OPTI-MEM medium with 5% FBS. The plates are incubated overnight at 37 deg C with 5% CO2. Then through pin tool transfer, 23 nL of compounds are added to each well before a 24 hr incubation at 37 deg C with 5% CO2. After the addition of 2.5 uL of Steady-Glo. the plates are kept at RT for 30 min, before they are read on the ViewLux.
Regarding `Cc1ccc(OP(=O)(Nc2ccccn2)Oc2ccc(C)cc2)cc1`, the activation is inactive: 2.38%. `COC(=O)c1cc2c(s1)N=C(c1ccccc1)N(C)P2(=O)N1CCOCC1` (stereo unspecified): the activation is inactive: 2.25%.

Turning to `O=P1(N(CCCl)CCCl)OCCC2CCCCN21` (stereo unspecified), the activation is inactive: -1.21%. As for `Cc1ccc(NP(=O)(Oc2cccc(C)c2)Oc2cccc(C)c2)nc1`, the activation was inactive: -0.224%. The same measure for `c1ccc(-c2nn[nH]n2)c(-c2nn[nH]n2)c1`: inactive: 2.06%. For `O=C(NC1CCS(=O)(=O)C1)NP(=S)(Oc1ccccc1)Oc1ccccc1` (stereo unspecified), the activation is inactive: 2.5%. Turning to `CCNC(=S)/N=C(\N)N[N+](=O)[O-]`, the activation is inactive: -0.0932%. `CC(=O)Nc1ccc(Oc2c([N+](=O)[O-])cc([N+](=O)[O-])cc2[N+](=O)[O-])cc1`: the activation was inactive: 9.72%. Regarding `CC(=O)Nc1ccc([As](=O)(O)O)c(O)c1`, the activation is inactive: -0.495%. `C[C@@H]1C=CCP(=O)(Oc2ccccc2)O1` (stereo partly specified): the activation is inactive: -0.28%. As to `C[C@H]1OP(=O)(Oc2ccccc2)C[C@@H]2O[C@@H]21` (stereo partly specified), the activation is inactive: -0.358%. The same measure for `Cc1ccccc1CN(C)C(=O)COC(=O)C(O)(c1ccccc1)c1ccccc1`: inactive: 2.04%; for `COC(=O)C1(C)COP(=O)(NCc2ccccc2)OC1` (stereo unspecified): inactive: -0.234%. In the case of `N#C/C(=C\c1ccc(N(CCBr)CCBr)cc1)C(N)=O`, the activation is inactive: 12.1%. As to `CC(=O)c1ccc(N2CC2c2ccncc2)cc1` (stereo unspecified), the activation was inactive: 0.202%.

Turning to `CC(C)(C)C(=O)NC(Sc1ccccc1)C(Cl)(Cl)Cl` (stereo unspecified), the activation was inactive: -0.311%.

Turning to `CCc1cc(O)c([N+](=O)[O-])c(C)c1[N+](=O)[O-]`, the activation is inactive: 0.175%. Regarding `CCOc1ccc(C2=NCC(CBr)S2)cc1` (stereo unspecified), the activation was inactive: 0.291%. In the case of `O=P1(Nc2nc3ccc(Cl)cc3s2)COc2ccccc2O1` (stereo unspecified), the activation was inactive: 4.27%. Next, `c1nnnn1CCn1cnnn1`: inactive: -0.846%; `O=P(Nc1nccs1)(c1ccccc1)c1ccccc1`: inactive: 0.63%. For the molecule `CC(C)C(=O)NC(Sc1ccccc1)C(Cl)(Cl)Cl` (stereo unspecified), the activation was inactive: -0.501%.

As to `O=C(OC1CN2CCC1CC2)c1cccc(Cl)c1` (stereo unspecified), the activation is inactive: -0.187%. Next, `Nc1ccc([As](=O)(O)c2ccc([N+](=O)[O-])cc2)cc1`: inactive: -0.0472%. As to `C(Cc1nn[nH]n1)Cc1nn[nH]n1`, the activation is inactive: -0.22%. The same measure for `O=[As](O)(c1ccccc1)c1ccc(O)cc1`: inactive: 0.145%. Regarding `CC(=O)NC(SC(=S)N(C)C)C(Cl)(Cl)Cl` (stereo unspecified), the activation was inactive: 16.6%. Regarding `O=[N+]([O-])c1ncn(CCn2cnc([N+](=O)[O-])n2)n1`, the activation is inactive: 2.21%.

Consider `O=[N+]([O-])c1ccc(O)c(/C=N/Nc2ccc([N+](=O)[O-])cc2[N+](=O)[O-])c1`, for which the activation is inactive: 0.658%. The same measure for `C[C@H]1OP(=O)(Oc2ccccc2)[C@H](O)[C@H](O)[C@H]1N=[N+]=[N-]` (stereo partly specified): inactive: -0.113%. Next, `O=P(Nc1nc2ccccc2s1)(c1ccccc1)c1ccccc1`: inactive: 0.234%.

With `CN(C)C1(CNC(=O)c2ccc(Cl)c(S(N)(=O)=O)c2)CCCCC1`, the activation is inactive: -0.695%. The same measure for `O=P(Nc1ccccn1)(c1ccc(Br)cc1)c1ccc(Br)cc1`: inactive: 0.328%. Next, `Nc1ccc(CCCCOc2ccccc2)cc1`: inactive: 4.27%. Next, `COc1ccc(N)c([N+](=O)[O-])c1[N+](=O)[O-]`: inactive: 15%. On to `Nc1cccc([As](=O)(O)c2ccccc2)c1`, for which the activation was inactive: -1.09%. Regarding `NS(=O)(=O)c1cccc(NC(=O)COC(=O)C(O)(c2ccccc2)c2ccccc2)c1`, the activation was inactive: -0.519%.

Regarding `O=P1(Nc2ccc(Br)cn2)COc2ccccc2OC1`, the activation was inactive: -0.306%.

Turning to `Cc1ccc(OCC(=O)OC2CN3CCC2CC3)cc1` (stereo unspecified), the activation is inactive: 0.0819%. In the case of `O=[As](O)(c1cccs1)c1cccs1`, the activation is inactive: -0.101%. On to `Cc1ccc(S(=O)(=O)N(CCCN)CCCc2c(C)nc(N)[nH]c2=O)cc1`, for which the activation was inactive: 0.538%. The same measure for `O=P1(Nc2ncccn2)COc2ccccc2OC1`: inactive: 2.36%; for `CN(C)C1(CNC(=O)c2ccc(S(C)(=O)=O)cc2)CCCCC1`: inactive: 0.0453%. The same measure for `CCCC1OP(=O)(Nc2ccccc2)OCC1CC` (stereo unspecified): inactive: 0.149%; for `O=C(/C=C/c1ccccc1)OC1CN2CCC1CC2` (stereo unspecified): inactive: 0.393%; for `Cc1ccc(C(=O)OC2CN3CCC2CC3)cc1` (stereo unspecified): inactive: 0.59%. The same measure for `CC1CCC(C(C)C)C(OP(=O)(Nc2ccccn2)c2ccccc2)C1` (stereo unspecified): inactive: 4.55%.

Take `Cc1nn(-c2ccccc2)c2c1P(=O)(N1CCOCC1)N(C)C(c1ccccc1)=N2` (stereo unspecified): the activation was inactive: 0.122%. The same measure for `CN(C(=O)Cc1ccc(Cl)c(Cl)c1)[C@@H]1CCCC[C@H]1N1CCCC1`: inactive: 2.7%. Regarding `CC(C)/C=N\N=C(\N)N[N+](=O)[O-]`, the activation was inactive: 0.481%. As for `CC1(CBr)Cn2c(nc3ccccc3c2=O)S1` (stereo unspecified), the activation was inactive: 2.34%.
